Results from patent publication US9968583B2, “Method of manufacture of liposome composition” (EISAI R & D MANAGEMENT CO., LTD., priority 2009, dated 2018).

Experiment: Measurement of the entrapment ratio (ultracentrifugation, HPLC of active compound in the filtrate)
Assay type: physicochemical
Conditions: E7107, internal phase 250 mM HP-β-cyclodextrin/100 mM citric acid (pH=5.5)
Protocol: The entrapment ratio was determined as described below.
The entrapment ratio was calculated using the formula below.

Measured: Entrapment ratio (%)

CCC(O)C(C)C1OC1CC(C)(O)/C=C/C=C(\C)C1OC(=O)CC(O)CCC(C)(O)C(OC(=O)N2CCN(C3CCCCCC3)CC2)/C=C/C1C (stereo not drawn) [E7107, (8E,12E,14E)-7-{(4-cycloheptylpiperazin-1-yl)carbonyl}oxy-3,6,16,21-tetrahydroxy-6,10,12,16,20-pentamethyl-18,19-epoxytricosa-8,12,14-trien-11-olide]
99.4%: 40° C., 1 hour | 50° C., 5 minutes | 60° C., 5 minutes
